The values that follow come from PubChem BioAssay AID485281 (National Center for Advancing Translational Sciences (NCATS), 2010).

Protein sequences, listed by entry. Tags and fused reporters are not part of them. Residues count along the entry.
UniProt P02791, 2-175 limits assumed: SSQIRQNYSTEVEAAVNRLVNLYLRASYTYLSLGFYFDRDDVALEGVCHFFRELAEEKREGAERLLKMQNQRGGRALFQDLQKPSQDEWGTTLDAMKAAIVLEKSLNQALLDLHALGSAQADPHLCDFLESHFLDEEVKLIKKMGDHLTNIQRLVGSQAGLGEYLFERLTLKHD

The structures appear in SMILES notation. The list shows a part of the results, in another mix than the full data. Inconclusive results are not listed. Activity calls are given as the source filed them. Calls follow the shape of the dose curve; as a rule, active = well fitted inhibition curve with a large enough effect; inconclusive = small, poorly fitted or top-dose-only effect; inactive = no such curve, though single readings can be large or run the other way.
% is scaled to controls: 0 for no effect and ±100 for the full control effect.

This test deals with Ferritin light chain (Equus caballus) (UniProt P02791). In words: qHTS Assay for Identification of Novel General Anesthetics. Also: nearly all actives have a fitted effect of over 20% in size. The note with it: apoferritin/1-aminoanthracene competitive binding, fluorescence; at 77.5 µM (top of the series). For orientation: Quantitative high-throughput screening tests each substance at several concentrations.
As to `COc1ccccc1OP(C)(=O)Nc1ccc(C)cc1C` (configuration not stated), the activity change, negative = displacement was inactive: -11.5%.
Under `CP(=O)(Oc1ccccc1)OC(c1ccccc1)C(F)(F)F` (configuration not stated) stands inactive: -14.5%.
